# Ab-95 light chain CDR variants: yeast mating affinities

The measurements come from Engelhart et al. 2022 (doi:10.1038/s41597-022-01779-4) through the FLAb antibody collection.

The target is the same throughout: PDVDLGDISGINAS, from the HR2 region of SARS-CoV-2 spike.

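The library (AAYL52) carries one to three amino acid substitutions per variant, with no insertions or deletions. Affinity was read by AlphaSeq, a pooled yeast mating assay with surface-displayed partners. Mating (16 h, 30 °C) was followed by selection of diploids and sequencing of their barcodes. The ratio of observed to expected reads was calibrated, replicate by replicate, on BCL2-family standards whose Kd was known from biolayer interferometry. Mating was done three times.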

Ab-95 is the parent antibody, in scFv form: VH, then a 15-residue (Gly4Ser)3 linker, then VL. The heavy chain is unchanged in all variants.
VH: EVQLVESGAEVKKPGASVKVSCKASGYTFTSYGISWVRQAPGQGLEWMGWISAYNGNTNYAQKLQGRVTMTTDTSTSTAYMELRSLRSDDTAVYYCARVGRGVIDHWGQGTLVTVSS
VL: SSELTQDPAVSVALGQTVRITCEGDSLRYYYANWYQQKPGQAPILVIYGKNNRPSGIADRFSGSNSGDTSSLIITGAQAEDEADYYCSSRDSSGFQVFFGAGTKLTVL

Positions count from residue 1 of the parent VL; D25P puts P in place of D. Numbers give log10(Kd / nM), so 0 is 1 nM and 3 is 1 µM. Smaller is tighter. Replicates are averaged; those with no signal do not enter the mean. An entry "n.d." has no value in the source: the pair was not observed among the diploids in that replicate. This suggests poor binding but is not conclusive. Three control strains display no target. For library AAYL52, 28% of the pairings with them gave a signal, with a median of 3.91 and one signal in twenty below 2.90, so weak values seen in few replicates may be background. For each scFv, signals with the empty controls are counted beside the result, with their mean in brackets.

| # | changes | replicates, log10 nM | mean, log10 nM | signal with controls |
|---|---|---|---|---|
| 1 | D25P+L27G+R28C | 3.57 4.13 4.03 | 3.91 | 2/9 (4.32) |
| 2 | Y31S+A32D+R53F | 3.41 n.d. n.d. | 3.41 | 2/9 (3.60) |
| 3 | L27N+S89N+D91G | 3.33 3.36 n.d. | 3.35 | 5/9 (3.63) |
| 4 | G24F+G49L+R53T | 3.27 4.83 4.19 | 4.10 | 6/9 (3.75) |
| 5 | D25R+A32C+F98C | 3.33 4.14 4.64 | 4.04 | 1/9 (3.75) |
| 6 | R28T+Q96N | 3.10 2.92 2.84 | 2.95 | 2/9 (4.26) |
| 7 | D25R+Y31Q+S88R | n.d. 3.67 n.d. | 3.67 | 2/9 (3.25) |
| 8 | D25I+S89T+S93G | 2.54 3.12 4.19 | 3.29 | 3/9 (3.56) |
| 9 | G49P+S55D+V97E | 3.70 3.91 n.d. | 3.80 | 1/9 (4.49) |
| 10 | N51D+R53N+S55V | 2.92 n.d. n.d. | 2.92 | 0/9 |
| 11 | E23F+G49C+S93N | n.d. n.d. n.d. | n.d. | 1/9 (3.13) |
| 12 | R90L+F95I+F98W | n.d. 5.63 4.63 | 5.13 | 1/9 (3.49) |
| 13 | E23D+N51H+S89N | 4.62 5.02 n.d. | 4.82 | 4/9 (3.32) |
| 14 | N33P+N52S+V97N | 3.60 3.91 3.81 | 3.77 | 3/9 (4.26) |
| 15 | K50V+F98C | n.d. 3.44 2.09 | 2.76 | 4/9 (4.71) |
| 16 | Y30T+S92V+S93V | 3.09 3.34 3.23 | 3.22 | 2/9 (3.47) |
| 17 | G24W+N52T+G94P | 3.98 4.16 n.d. | 4.07 | 2/9 (3.41) |
| 18 | E23T+D25V | 2.24 2.66 2.01 | 2.31 | 1/9 (3.40) |
| 19 | E23W+N52R | 3.98 4.00 3.38 | 3.79 | 1/9 (3.85) |
| 20 | N51A+R53H+P54N | 4.05 n.d. n.d. | 4.05 | 2/9 (3.68) |
| 21 | L27V+R53S+G94R | n.d. n.d. n.d. | n.d. | 1/9 (3.94) |
| 22 | A32Q+P54E+G94K | 5.62 n.d. n.d. | 5.62 | 2/9 (3.71) |
| 23 | K50P+P54N | 2.69 2.94 2.11 | 2.58 | 5/9 (3.65) |
| 24 | Y29K+N52C+D91A | 2.67 2.83 2.83 | 2.78 | 3/9 (4.02) |
| 25 | S26D+D91G+F98Y | 2.64 2.85 2.64 | 2.71 | 1/9 (3.76) |
| 26 | G24P+Q96G+V97R | n.d. 4.47 4.28 | 4.37 | 6/9 (4.02) |
| 27 | R28I+S93P+Q96V | 4.62 4.46 n.d. | 4.54 | 1/9 (3.35) |
| 28 | S89P+R90H+G94N | n.d. 3.41 4.28 | 3.84 | 5/9 (4.24) |
| 29 | G49P+S88A+G94Y | 3.85 n.d. n.d. | 3.85 | 2/9 (3.39) |
| 30 | G49I+S92L+F95E | 4.20 5.05 4.13 | 4.46 | 2/9 (3.32) |
| 31 | R28A+G49M+S55N | n.d. n.d. n.d. | n.d. | 3/9 (4.10) |
| 32 | G24E+K50Y+R53I | 3.69 4.85 n.d. | 4.27 | 4/9 (4.35) |
| 33 | L27C+R28H+G49V | n.d. n.d. n.d. | n.d. | 3/9 (4.05) |
| 34 | G24S+S89G+S93P | 3.41 n.d. 3.60 | 3.50 | 3/9 (3.79) |
| 35 | R28L+N33K+N51H | 4.31 4.61 n.d. | 4.46 | 6/9 (4.34) |
| 36 | D25S+A32P+N33R | 2.60 2.61 2.41 | 2.54 | 4/9 (4.03) |
| 37 | D25H+S55I+R90K | 4.18 4.06 n.d. | 4.12 | 2/9 (4.49) |
| 38 | G24C+D91G+S93M | n.d. 2.51 4.16 | 3.34 | 4/9 (3.32) |
| 39 | A32T+R90K+D91A | n.d. 4.33 2.87 | 3.60 | 3/9 (4.04) |
| 40 | Y29G+D91P+F95Q | 2.90 n.d. 2.88 | 2.89 | 3/9 (3.46) |
| 41 | R28D+S55M+Q96P | 4.74 3.47 3.35 | 3.86 | 3/9 (4.29) |
| 42 | Y29K+Y30R+S55G | 1.91 2.41 1.80 | 2.04 | 4/9 (4.20) |
| 43 | N33M+K50F+R53N | 3.75 n.d. n.d. | 3.75 | 2/9 (3.09) |

Excerpt, the first 5 entries:

changes	replicates, log10 nM	mean, log10 nM	signal with controls
D25P+L27G+R28C	3.57 4.13 4.03	3.91	2/9 (4.32)
Y31S+A32D+R53F	3.41 n.d. n.d.	3.41	2/9 (3.60)
L27N+S89N+D91G	3.33 3.36 n.d.	3.35	5/9 (3.63)
G24F+G49L+R53T	3.27 4.83 4.19	4.10	6/9 (3.75)
D25R+A32C+F98C	3.33 4.14 4.64	4.04	1/9 (3.75)